Each structure is given as a SMILES string.

Amino acid sequences for entries named in this document (tags omitted). A change or cut given only in a name is not applied to a line headed by its entry.
UniProt Q9Y5N1: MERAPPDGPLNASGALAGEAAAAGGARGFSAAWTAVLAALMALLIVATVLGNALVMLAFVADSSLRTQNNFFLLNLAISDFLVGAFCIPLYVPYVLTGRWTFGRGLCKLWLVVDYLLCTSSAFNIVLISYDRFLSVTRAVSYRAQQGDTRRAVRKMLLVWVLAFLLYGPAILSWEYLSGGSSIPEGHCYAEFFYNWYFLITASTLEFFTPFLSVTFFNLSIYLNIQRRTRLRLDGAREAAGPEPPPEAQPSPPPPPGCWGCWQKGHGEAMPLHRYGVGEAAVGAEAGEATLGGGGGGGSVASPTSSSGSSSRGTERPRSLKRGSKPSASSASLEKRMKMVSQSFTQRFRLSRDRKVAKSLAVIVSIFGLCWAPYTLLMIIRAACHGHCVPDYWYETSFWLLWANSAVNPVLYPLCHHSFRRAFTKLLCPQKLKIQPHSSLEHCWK

The values that follow come from publication PMC7717691, “Design, synthesis, and anticonvulsant effects evaluation of nonimidazole histamine H3 receptor antagonists/inverse agonists containing triazole moiety” (Journal of Enzyme Inhibition and Medicinal Chemistry, 2020).

This experiment has as its target T1, H3R (Homo sapiens, UniProt Q9Y5N1).
T1 construct: expressed in transfected cells
Nature of the experiment: CRE-driven luciferase reporter gene assay, H3R antagonistic activity. Type of experiment: cell-based. The settings on record: HEK-293 cells, Table 1. Here is the method:
cAMP-response element (CRE) reporter gene assay has been extensively used to evaluate the efficacy of GPCR antagonists or agonists. […] Initially, compounds and positive controls were tested at two concentrations (100 nM and 1 µM) to obtain the preliminary investigation of their H3R antagonistic activities. In the assays, the antagonistic activities was positively correlated with the rise of the fluorescence value and indicated by the % antagonism. For the prominent compounds IC50 values were determined at additional assays.
Human thalamus poly-A RNA (Clontech, Palo Alto, CA, USA) was used to clone the hH3R gene by RT-PCR. DNA PCR primers were designed in the light of the reported human histamine receptor gene sequences (GenBank accession no.AF140538). HEK-293 cells were cultured and transfected for the luciferase assay. The detailed procedures were described in the previous publication.
Stable HEK-293 cells, which had been co-transfected with H3R and pCRE-Luc, were seeded in a 96-well plate overnight, and were grown to 90–95% confluence[43]^,[44]. Then the cells were treated with various concentrations of tested compounds in serum-free DMEM and incubated for 20 min. Cells were then stimulated with 100 nM Histamine in serum-free DMEM containing 2 µM Forskolin and incubated for 4 h at 37 °C. […]
Background: In a reporter assay the amount or activity of a reporter protein is the signal.

One may read the IC50 as the concentration needed to halve the response being measured. The compound `O=C(c1ccc(OCCCc2cnc[nH]2)cc1)C1CC1` [CPX, ciproxifan, reference compound] gave an IC50 of 82 nM.
